Assay results from patent publication US20070134319A1, “Pharmaceutical formulations of bisphosphonates” (priority 2003, published 2007).

Settings: at 60° C.

O=P(O)(O)C(O)(Cn1ccnc1)P(=O)(O)O [zoledronic acid, 1-hydroxy-2-(imidazol-1-yl)ethane-1,1-diphosphonic acid]
Solubility of zoledronic acid in GELUCIRE 44/14: less than 1 mg/g
